Measurements published in article PMC5458626 (American heart journal, 2017).

Legend:
[1] = Plasma pharmacokinetics of udenafil and DA-8164; conditions: for DA-8164 Cmax: plasma metabolite
Adverse events = type: in vivo, human; conditions: 5 days, N=6
[2] = Vascular function by peripheral arterial tonometry; type: in vivo, human; conditions: N=5
[3] = metabolite, oral udenafil 87.5 mg bid for five days, mean (%CV), N=6
[4] = metabolite, oral udenafil 87.5 mg daily for five days, mean (%CV), N=6
[5] = oral udenafil 87.5 mg bid for five days, mean (%CV), N=6
[6] = oral udenafil 87.5 mg daily for five days, mean (%CV), N=6
[7] = twice-daily dosing, dose increased 2.3 times (37.5 to 87.5 mg)

Structure (SMILES): CCCOc1ccc(S(N)(=O)=O)cc1-c1nc2c(CCC)nn(C)c2c(=O)[nH]1 [DA-8164]
- DA-8164 T½ (harmonic mean half-life, 0.693/mean kel) ([1]; metabolite, oral udenafil 87.5 mg bid for five days, N=6): 12.3 h
- DA-8164 Cavg (AUC0−τ/τ) [1, 3]: 201 (24) ng/mL
- DA-8164 Tmax [1, 3]: 2.6 (36) h
- DA-8164 kel [1, 3]: 0.0564 (17) h
- DA-8164 AUC0−τ ([1]; metabolite, oral udenafil 87.5 mg bid for five days, τ = 12 hours, mean (%CV), N=6): 2410 (24) ng*h/mL
- DA-8164 T½ (harmonic mean half-life, 0.693/mean kel) ([1]; metabolite, oral udenafil 87.5 mg daily for five days, N=6): 14.9 h
- DA-8164 Cavg (AUC0−τ/τ) [1, 4]: 121 (65) ng/mL
- DA-8164 Tmax [1, 4]: 3.2 (30) h
- DA-8164 kel [1, 4]: 0.0464 (16) h
- DA-8164 Cmax [1, 5]: 293 (34) ng/mL
- DA-8164 Cmax [1, 6]: 227 (66) ng/mL

Structure (SMILES): CCCOc1ccc(S(=O)(=O)NCCC2CCCN2C)cc1-c1nc2c(CCC)nn(C)c2c(=O)[nH]1 (stereo not drawn) [udenafil]
- Subjects who experienced drug-related (probably or possibly) adverse events: Headache (Adverse events; udenafil 87.5 mg daily): 4 (67) n (%)
- Subjects who experienced drug-related adverse events: Abdominal discomfort (Adverse events; udenafil 87.5 mg daily): 0 (0) n (%)
- Subjects who experienced drug-related adverse events: Back pain (Adverse events; udenafil 87.5 mg daily): 0 (0) n (%)
- Subjects who experienced drug-related adverse events: Flushing (Adverse events; udenafil 87.5 mg daily): 4 (67) n (%)
- Subjects who experienced drug-related adverse events: Nasal congestion (Adverse events; udenafil 87.5 mg daily): 1 (17) n (%)
- Subjects who experienced drug-related adverse events: Nausea (Adverse events; udenafil 87.5 mg daily): 0 (0) n (%)
- Subjects who experienced drug-related (probably or possibly) adverse events: Headache (Adverse events; udenafil 87.5 mg twice daily): 4 (67) n (%)
- Subjects who experienced drug-related adverse events: Abdominal discomfort (Adverse events; udenafil 87.5 mg twice daily): 1 (17) n (%)
- Subjects who experienced drug-related adverse events: Back pain (Adverse events; udenafil 87.5 mg twice daily): 1 (17) n (%)
- Subjects who experienced drug-related adverse events: Flushing (Adverse events; udenafil 87.5 mg twice daily): 2 (33) n (%)
- Subjects who experienced drug-related adverse events: Nasal congestion (Adverse events; udenafil 87.5 mg twice daily): 1 (17) n (%)
- Subjects who experienced drug-related adverse events: Nausea (Adverse events; udenafil 87.5 mg twice daily): 1 (17) n (%)
- Augmentation Index adjusted to HR 75, follow-up measurement ([2]; day 5, udenafil 87.5 mg BID): −4.49±12.02
- Natural log of Reactive Hyperemic Index, follow-up measurement ([2]; day 5, udenafil 87.5 mg BID): 0.40±0.29
- Augmentation Index adjusted to HR 75, follow-up measurement ([2]; day 5, udenafil 87.5 mg QD): −12.71±9.11
- Natural log of Reactive Hyperemic Index, difference FU – BL ([2]; day 5 minus baseline (positive = improvement), udenafil 87.5 mg QD): 0.07±0.22
- Cmax ([1]; human, plasma, po, 87.5 mg, Udenafil Cmax, oral udenafil 87.5 mg bid for five days, mean (%CV), N=6): 506 ng/mL
- Udenafil CL/F (oral clearance) [1, 5]: 27.2 (20) L/h
- Udenafil Cavg (AUC0−τ/τ) [1, 5]: 279 ng/mL
- Udenafil CL/F (oral clearance) [1, 6]: 41.1 (19) L/h
- Fold increase of mean udenafil AUC0−τ with dose [1, 7]: 3.2 fold
- Fold increase of mean udenafil Cmax with dose [1, 7]: 3.3 fold
